Assay results reported in ChEMBL document CHEMBL5247575 (J Med Chem, 2018).

Experiments:
[1] = Inhibition of bacteria OXA-23 assessed as apparent inhibition constant using nitrocefin as substrate
[2] = Inhibition of bacteria OXA-23/40 assessed as apparent inhibition constant using nitrocefin as substrate
[3] = Inhibition of bacteria OXA-48 assessed as apparent inhibition constant using nitrocefin as substrate

Structure (SMILES): O=C(NNC(=O)[C@@H]1CC[C@@H]2CN1C(=O)N2OS(=O)(=O)O)[C@@H]1CCNC1
- Ki [1]: > 100 µM
- Ki [2]: > 100 µM
- Ki [3]: > 100 µM

Structure (SMILES): NC(=O)[C@@H]1CC[C@@H]2CN1C(=O)N2OS(=O)(=O)[O-].[Na+] [AVIBACTAM SODIUM]
- Ki [1]: > 100 µM
- Ki [2]: > 100 µM

Structure (SMILES): O=C(NNC(=O)[C@@H]1CC[C@@H]2CN1C(=O)N2OS(=O)(=O)O)[C@@H]1CCCNC1 [ZIDEBACTAM]
- Ki [1]: > 100 µM
- Ki [2]: > 100 µM
- Ki [3]: > 100 µM
